The source of these data is ChEMBL document CHEMBL2424579, “Quinazolin-4-one derivatives as selective histone deacetylase-6 inhibitors for the treatment of Alzheimer's disease” (J Med Chem, 2013).

The chains behind the UniProt entries cited, without tags or fusion partners.
UniProt P05067, whole entry: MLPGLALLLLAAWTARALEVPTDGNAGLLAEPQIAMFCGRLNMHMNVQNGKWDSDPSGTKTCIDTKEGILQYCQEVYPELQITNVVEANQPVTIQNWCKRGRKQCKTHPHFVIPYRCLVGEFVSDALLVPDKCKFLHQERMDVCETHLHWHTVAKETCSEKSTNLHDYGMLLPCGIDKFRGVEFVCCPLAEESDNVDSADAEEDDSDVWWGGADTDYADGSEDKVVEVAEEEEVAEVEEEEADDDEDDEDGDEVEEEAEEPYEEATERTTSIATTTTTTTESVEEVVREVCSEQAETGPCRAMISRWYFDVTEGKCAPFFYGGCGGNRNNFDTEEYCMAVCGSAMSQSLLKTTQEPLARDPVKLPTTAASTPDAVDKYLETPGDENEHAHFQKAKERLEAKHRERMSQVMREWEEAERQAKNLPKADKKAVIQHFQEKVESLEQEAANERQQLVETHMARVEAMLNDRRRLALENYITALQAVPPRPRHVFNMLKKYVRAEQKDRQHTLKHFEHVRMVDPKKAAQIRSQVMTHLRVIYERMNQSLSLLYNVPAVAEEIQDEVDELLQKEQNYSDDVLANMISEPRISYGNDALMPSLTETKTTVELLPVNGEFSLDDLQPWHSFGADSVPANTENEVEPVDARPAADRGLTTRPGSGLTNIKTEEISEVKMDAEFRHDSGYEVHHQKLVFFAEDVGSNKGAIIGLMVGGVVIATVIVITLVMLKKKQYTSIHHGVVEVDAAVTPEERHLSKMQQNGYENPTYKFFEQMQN
UniProt Q13547, whole entry: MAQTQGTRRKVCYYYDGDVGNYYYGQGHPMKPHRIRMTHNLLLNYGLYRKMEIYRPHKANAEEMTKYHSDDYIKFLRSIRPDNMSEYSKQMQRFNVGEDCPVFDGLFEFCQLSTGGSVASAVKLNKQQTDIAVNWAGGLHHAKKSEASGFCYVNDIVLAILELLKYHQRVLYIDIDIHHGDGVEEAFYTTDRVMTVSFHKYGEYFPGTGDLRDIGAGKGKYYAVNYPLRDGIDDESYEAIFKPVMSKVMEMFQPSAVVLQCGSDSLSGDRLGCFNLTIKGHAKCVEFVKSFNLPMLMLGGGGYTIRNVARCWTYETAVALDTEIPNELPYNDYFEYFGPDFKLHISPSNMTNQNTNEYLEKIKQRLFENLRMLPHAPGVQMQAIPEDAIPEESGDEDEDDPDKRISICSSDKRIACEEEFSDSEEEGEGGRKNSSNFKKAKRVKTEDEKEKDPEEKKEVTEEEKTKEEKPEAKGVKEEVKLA

Assay [1] concerns the target Amyloid-beta precursor protein (Homo sapiens, UniProt P05067). Kind of assay: Inhibition of amyloid beta aggregation (unknown origin) after 4 hrs by thioflavin S assay in absence of Zn2+.
In the next assay the target is Histone deacetylase 1 (Homo sapiens, UniProt Q13547). Kind of assay: Inhibition of human recombinant HDAC1 expressed in baculovirus/sf9 cells using RHKKAc as substrate.

SMILES strings stand for the structures. A value given as a limit tells only on which side of the number the result lay.

In general, IC50 refers to the concentration that gives 50% inhibition. Regarding `Cc1nc2cc(/C=C/C(=O)NO)ccc2c(=O)n1-c1ccccc1`, the 50% inhibitory concentration (IC50) is more than 50 µM in assay [1] and 4.89 µM at Histone deacetylase 1.
